The nature of this assay: cellular cytoskeleton assembly phenotype modulators – imaging, high-content imaging, retest and dose response, confirmation (AID 1249).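 Also: compound exposure lasted 24 h before fixation; plate controls were untreated cells for no effect and reference compound treated cells for full effect.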 Particulars: cell-based imaging, at 2 µM, active compounds read high.

Consider one molecule from PubChem BioAssay AID1249 (Columbia University Molecular Screening Center, 2008).

This is a selection; strong and weak results do not stand in their true shares. Activity calls are given as the source filed them. No rule for the calls is given here.

As for `O=P(Nc1nccs1)(c1ccccc1)c1ccccc1`, the inhibition is inactive: 3.5%.
